{"source": "patent US7772255B2", "about": "“Method of treating tumors with azaxanthones” (Supratek Pharma, Inc., priority 2005, dated 2010)", "tested_on": "CSML100 cells", "assay": "S100A4-positive lung metastasis tumor model, alone or in combinations (Example 25)", "format": "in vivo, mouse", "settings": "CSML100 i.v. in A/J mice; PTX i.v. 10 mg/kg on day 1, 4, 7; mean±SEM", "protocol": "Amlexanox solution for injections was prepared according to the Example 4. […] The animals were then divided randomly into 9 groups (n=9 except for control group): 1) intact control (n=13, saline); 2) Amlexanox (i.v. 100 mg/kg); 3) Amlexanox ([…]. 3 mg/kg); 5) Amlexanox ([…]. 3 mg/kg); 6) Dox (i.v. 3 mg/kg); 7) Amlexanox (p.o. 200 mg/kg)+Dox (i.v. 3 mg/kg); 8) PTX (i.v. 10 mg/kg), and 9) Amlexanox ([…]. 10 mg/kg). […] The treatments were started on the day following the tumor cell implantation and continued for 10 consecutive days. Cytotoxic drugs, TPT, Dox or PTX, were administrated intravenously on day 1, 4, and 7 after tumor implantation. The animal body weight was recorded as an index of treatment toxicity during the experiment. The data in Table show metastasis development. The data are expressed as mean±SEM for the number of metastatic sites on the lung surface.", "data": [{"smiles": "CC(=O)O[C@H]1C(=O)[C@@]2(C)[C@H]([C@H](OC(=O)c3ccccc3)[C@]3(O)C[C@H](OC(=O)[C@H](O)[C@@H](NC(=O)c4ccccc4)c4ccccc4)C(C)=C1C3(C)C)[C@]1(OC(C)=O)CO[C@@H]1C[C@@H]2O", "note": "[PTX, paclitaxel]", "values": [{"measurement": "Lung Metastasis Number per Animal", "value": "40.8 ± 9.48"}]}]}
